Measured values: publication PMC8456950, “Structure‐Guided Design of G‐Protein‐Coupled Receptor Polypharmacology” (Angewandte Chemie (International Ed. in English), 2021)

Protein sequences, listed by entry. Tags and fused reporters are not part of them. Lines headed by an entry give the natural chain unless they say otherwise; changes in a name come on top.
UniProt P14416, whole entry: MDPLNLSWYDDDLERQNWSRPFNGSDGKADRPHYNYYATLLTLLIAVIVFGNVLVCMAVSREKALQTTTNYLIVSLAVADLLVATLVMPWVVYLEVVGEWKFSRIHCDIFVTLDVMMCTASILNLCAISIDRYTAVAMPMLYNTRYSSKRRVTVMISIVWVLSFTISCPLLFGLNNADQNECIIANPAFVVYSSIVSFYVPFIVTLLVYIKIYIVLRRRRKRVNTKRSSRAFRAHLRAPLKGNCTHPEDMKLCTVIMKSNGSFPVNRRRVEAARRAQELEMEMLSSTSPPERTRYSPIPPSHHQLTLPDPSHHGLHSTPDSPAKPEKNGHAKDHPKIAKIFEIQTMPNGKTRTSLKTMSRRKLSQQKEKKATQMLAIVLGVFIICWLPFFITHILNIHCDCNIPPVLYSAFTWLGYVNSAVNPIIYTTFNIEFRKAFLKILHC

How the values were obtained:
Human A2AAR = Human A2AAR (Homo sapiens, UniProt P29274); experiment: A2AAR competition binding ([3H]-ZM241385 displacement); details: read-out: A2AAR binding affinity Ki; radioligand displacement, mean±SEM of three experiments in duplicate; tested form: TFA
Human D2R = Human D2R (Homo sapiens, UniProt P14416); experiment: D2R competition binding ([3H]-spiperone displacement); details: read-out: D2R binding affinity Ki; radioligand displacement, mean±SEM of three experiments in duplicate; tested form: TFA

Ki (Human A2AAR)	Ki (Human D2R)	SMILES
770 nM	2700 nM	COc1ccc(Cl)c2sc(NC(=O)CCN(C)C3Cc4ccccc4C3)nc12
840 nM	1900 nM	COc1ccc(C)c2sc(NC(=O)CCN(C)C3Cc4ccccc4C3)nc12
